# Test results published in publication PMC9471048.
# Sequences of proteins named here, by UniProt entry; tags and fusion partners are left off.
# UniProt P08588, whole entry: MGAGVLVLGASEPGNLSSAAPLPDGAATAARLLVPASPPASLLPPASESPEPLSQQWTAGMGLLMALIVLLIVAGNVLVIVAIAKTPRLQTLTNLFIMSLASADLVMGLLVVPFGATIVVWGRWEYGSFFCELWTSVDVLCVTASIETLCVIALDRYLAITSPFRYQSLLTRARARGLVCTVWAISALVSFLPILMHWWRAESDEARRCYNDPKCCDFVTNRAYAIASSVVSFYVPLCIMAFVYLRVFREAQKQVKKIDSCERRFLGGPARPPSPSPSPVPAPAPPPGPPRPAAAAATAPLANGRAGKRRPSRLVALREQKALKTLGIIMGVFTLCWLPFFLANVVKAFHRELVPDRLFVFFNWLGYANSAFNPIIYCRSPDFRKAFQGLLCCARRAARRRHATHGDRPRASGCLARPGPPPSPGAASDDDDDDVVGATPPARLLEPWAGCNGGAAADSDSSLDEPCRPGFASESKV
# UniProt P07550, whole entry: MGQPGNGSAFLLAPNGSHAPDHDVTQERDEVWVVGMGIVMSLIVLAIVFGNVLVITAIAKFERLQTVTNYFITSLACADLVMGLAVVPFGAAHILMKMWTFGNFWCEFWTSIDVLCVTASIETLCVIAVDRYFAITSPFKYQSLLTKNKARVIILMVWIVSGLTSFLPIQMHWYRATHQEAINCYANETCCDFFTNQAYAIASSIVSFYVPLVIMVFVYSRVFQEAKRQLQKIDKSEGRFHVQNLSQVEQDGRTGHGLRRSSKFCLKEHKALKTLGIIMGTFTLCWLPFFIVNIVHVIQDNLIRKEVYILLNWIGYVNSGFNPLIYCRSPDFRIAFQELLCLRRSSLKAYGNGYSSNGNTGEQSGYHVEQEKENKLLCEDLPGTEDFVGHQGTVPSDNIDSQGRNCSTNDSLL
# UniProt P08913, whole entry: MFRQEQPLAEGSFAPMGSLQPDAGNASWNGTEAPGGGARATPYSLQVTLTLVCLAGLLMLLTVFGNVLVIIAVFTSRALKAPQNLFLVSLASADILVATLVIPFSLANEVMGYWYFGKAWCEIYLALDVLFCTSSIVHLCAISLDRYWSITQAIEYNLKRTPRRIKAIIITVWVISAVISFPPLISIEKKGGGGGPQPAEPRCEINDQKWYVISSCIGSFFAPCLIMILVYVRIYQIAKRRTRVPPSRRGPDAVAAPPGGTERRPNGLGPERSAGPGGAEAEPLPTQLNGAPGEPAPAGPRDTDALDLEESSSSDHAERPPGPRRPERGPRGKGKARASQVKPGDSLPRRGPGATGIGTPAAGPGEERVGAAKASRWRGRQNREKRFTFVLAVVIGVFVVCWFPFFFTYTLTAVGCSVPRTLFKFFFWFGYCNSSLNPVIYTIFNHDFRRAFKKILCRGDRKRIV
# UniProt P18089, whole entry: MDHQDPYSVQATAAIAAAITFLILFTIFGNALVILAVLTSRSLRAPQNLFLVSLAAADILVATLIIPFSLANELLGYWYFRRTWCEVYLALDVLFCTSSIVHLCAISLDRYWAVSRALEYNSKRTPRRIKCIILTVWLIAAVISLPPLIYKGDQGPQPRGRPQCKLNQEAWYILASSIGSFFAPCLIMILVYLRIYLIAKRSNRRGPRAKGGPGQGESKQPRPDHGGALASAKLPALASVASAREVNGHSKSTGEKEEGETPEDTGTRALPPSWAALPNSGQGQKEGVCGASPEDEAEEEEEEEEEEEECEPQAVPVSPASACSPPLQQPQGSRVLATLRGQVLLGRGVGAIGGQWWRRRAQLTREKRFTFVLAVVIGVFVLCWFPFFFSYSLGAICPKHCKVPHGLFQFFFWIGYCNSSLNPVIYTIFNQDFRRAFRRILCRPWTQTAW
# Read-outs that look alike come from different tables or passages of the source.
# Tests used:
# human β1‐adrenoceptor [1] = biological target: T1, human β1‐adrenoceptor (Homo sapiens, UniProt P08588); experiment: 3H-CGP12177 whole cell binding in CHO-β1 cells; details: for KD (log), 3H-CGP12177 whole cell binding CHO-β1: given as negative log KD, app = apparent affinity
# human β2‐adrenoceptor [2] = biological target: T2, human β2‐adrenoceptor (Homo sapiens, UniProt P07550); experiment: 3H-CGP12177 whole cell binding in CHO-β2 cells; details: for KD (log), 3H-CGP12177 whole cell binding CHO-β2: given as negative log KD, ep = early plateau
# human β1‐adrenoceptor [3] = biological target: T1, human β1‐adrenoceptor; experiment: CRE-SPAP production in CHO-β1 cells; details: for Log EC50 / Log IC50: CRE-SPAP; for Log EC50: log values; for Log IC50: with 3 µM forskolin (inhibitory response)
# human β2‐adrenoceptor [4] = biological target: T2, human β2‐adrenoceptor; experiment: CRE-SPAP production in CHO-β2 cells; details: for Log IC50 / Log EC50: CRE-SPAP; for Log IC50: with 3 µM forskolin (inhibitory response); for Log EC50: log values
# human α2A‐adrenoceptor [5] = biological target: T3, human α2A‐adrenoceptor (Homo sapiens, UniProt P08913); experiment: 3H‐rauwolscine whole cell binding in CHO‐α2A cells; details: read-out: IC50 in binding, CHO‐α2A, no KD obtained
# human α2B‐adrenoceptor [6] = biological target: T4, human α2B‐adrenoceptor (Homo sapiens, UniProt P18089); experiment: 3H‐rauwolscine whole cell binding in CHO‐α2B cells
# human α2A‐adrenoceptor [7] = biological target: T3, human α2A‐adrenoceptor; experiment: CRE‐SPAP gene transcription in CHO‐α2A cells
# human α2B‐adrenoceptor [8] = biological target: T4, human α2B‐adrenoceptor; experiment: CRE‐SPAP gene transcription in CHO‐α2B cells
# [9] = log of top concentration used, KD not calculable
# [10] = no forskolin, top of curve not obtained, at maximum concentration 100µM
SMILES,Log EC50 (human β1‐adrenoceptor [3]; no forskolin),Log IC50 (human β1‐adrenoceptor [3]),Log IC50 (human β2‐adrenoceptor [4]),"KD (log), 3H-CGP12177 whole cell binding CHO-β1 (human β1‐adrenoceptor [1])","KD (log), 3H-CGP12177 whole cell binding CHO-β2 (human β2‐adrenoceptor [2])",Log EC50 (human β2‐adrenoceptor [4]; no forskolin),further results
C=CCN1CCc2nc(N)sc2CC1 [BHT920],No resp,No resp,No resp,,,,"IC50 (log), 3H-CGP12177 whole cell binding CHO-β1 (human β1‐adrenoceptor [1]; [9]): IC50>-3; IC50 (log), 3H-CGP12177 whole cell binding CHO-β2 (human β2‐adrenoceptor [2]; [9]): IC50>-3"
C1=C(c2cnc[nH]2)c2ccsc2CC1 [RWJ52353],No resp,No resp,No resp,No binding,No binding,No resp,
CCc1cccc(CC)c1NC1=NCCN1 [ST‐91],No resp,No resp,No resp,No binding,No binding,No resp,
CCN1CCc2nc(N)oc2CC1 [BHT933],No resp,No resp,No resp,no binding,no binding,No resp,
CS(=O)(=O)Nc1c(O)ccc2c1CCCC2C1=NCCN1 (stereo not drawn) [A61603],,No resp,No resp,no binding,no binding,,"IC50 (human α2A‐adrenoceptor [5]): 100 µM; IC50 (human α2B‐adrenoceptor [6]; read-out: IC50 (binding, KD not calculable), CHO‐α2B, top concentration used): > 100 µM; IC50 (human α2B‐adrenoceptor [6]; read-out: IC50 in binding, CHO‐α2B, no KD obtained): > 100 µM; % 10µM isop, response at the maximum concentration of agonist used (human β1‐adrenoceptor [3]; [10]): 9.4 ± 5.0%; % 10µM isop, response at the maximum concentration of agonist used (human β2‐adrenoceptor [4]; [10]): 48.4 ± 13.0%; Log EC50 (Gs), CRE‐SPAP (with forskolin) (human α2A‐adrenoceptor [7]; CHO‐α2A (cell line 1), 3 μM forskolin, stimulatory part of biphasic response): −5.66 ± 0.13; Log EC50 (Gs), CRE‐SPAP (without forskolin) (human α2A‐adrenoceptor [7]; CHO‐α2A (cell line 1), absence of forskolin): −5.48 ± 0.33; % 3 μM forskolin, CRE‐SPAP (without forskolin) (human α2A‐adrenoceptor [7]; CHO‐α2A (cell line 1), maximum response compared to 3 μM forskolin): 5.9 ± 2.2%; Log IC50 (Gi), CRE‐SPAP (with forskolin) (human α2A‐adrenoceptor [7]; CHO‐α2A (cell line 1, 5830 fmol/mg protein), 3 μM forskolin): −6.95 ± 0.06; Log efficacy ratio (KD/IC50) (human α2A‐adrenoceptor [7]; CHO‐α2A, binding KD / Gi IC50 of CRE‐SPAP): >2.95; Log IC50 (Gi), CRE‐SPAP (with forskolin) (human α2B‐adrenoceptor [8]; 3 μM forskolin): −7.83 ± 0.05; Log EC50 (Gs), CRE‐SPAP (with forskolin) (human α2B‐adrenoceptor [8]; 3 μM forskolin, stimulatory part of biphasic response): −6.77 ± 0.05; Log EC50 (Gs), CRE‐SPAP (without forskolin) (human α2B‐adrenoceptor [8]; absence of forskolin): −6.66 ± 0.03; Log efficacy ratio (KD/IC50) (human α2B‐adrenoceptor [8]; binding KD / Gi IC50 of CRE‐SPAP): >3.83; % 3 μM forskolin, CRE‐SPAP (without forskolin) (human α2B‐adrenoceptor [8]; maximum response compared to 3 μM forskolin): 185.2 ± 9.3%"
